Reference: patent US7947834B2, “Substituted quinoxalines, their preparation and their therapeutical use as 11βHSD1 modulators” (Sanofi-Aventis, priority 2006, dated 2011)

Chains of the proteins cited; added tags and fusions are not shown.
UniProt P28845, whole entry: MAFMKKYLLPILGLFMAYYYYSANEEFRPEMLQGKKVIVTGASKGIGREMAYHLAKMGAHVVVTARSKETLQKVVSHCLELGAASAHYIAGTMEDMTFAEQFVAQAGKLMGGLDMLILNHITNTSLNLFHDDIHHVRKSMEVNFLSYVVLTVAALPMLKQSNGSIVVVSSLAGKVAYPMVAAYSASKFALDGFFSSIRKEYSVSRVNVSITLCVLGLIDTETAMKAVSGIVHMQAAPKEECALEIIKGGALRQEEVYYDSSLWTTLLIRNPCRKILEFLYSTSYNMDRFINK

Target: recombinant 11β-HSD1 protein (Homo sapiens, UniProt P28845)
Test: 11β-HSD1 SPA (Scintillation Proximity Assay) enzyme inhibition test, 384-well format
Settings: read-out: IC50 (concentration which inhibits 50% of the activity of 11β-HSD1); 3H-cortisone and NADPH; cortisol formed measured by SPA; tested form: oxalate (1/2)
Description: The compounds according to the invention formed the subject of pharmacological tests which make it possible to determine their inhibiting effect on the 11β-HSD1 enzyme, which is an enzyme which is involved in the metabolism of lipids or the metabolism of glucose.
These tests consisted in measuring the in vitro inhibiting activity of the compounds of the invention by virtue of an SPA (Scintillation Proximity Assay) test in 384-well format. The recombinant 11β-HSD1 protein was produced in the yeast S. cerevisiae. The reaction was carried out by incubating the enzyme in the presence of ^3H-cortisone and of NADPH, in the absence or in the presence of an increasing concentration of inhibitor. SPA beads coupled to an antimouse antibody, which are preincubated with anticortisol antibody, made it possible to measure the amount of cortisol formed during the reaction.
The inhibiting activity with regard to the enzyme 11β-HSD1 is given by the concentration which inhibits 50% of the activity of 11β-HSD1 (IC50).

CC1CCc2ccccc2N1C(=O)N1CCC(c2cn(C)cn2)CC1 (stereo not shown)
IC50: 230 nM
